pIC50: −log10 of the molar value.

Chains of the proteins cited; added tags and fusions are not shown.
UniProt P50750, whole entry: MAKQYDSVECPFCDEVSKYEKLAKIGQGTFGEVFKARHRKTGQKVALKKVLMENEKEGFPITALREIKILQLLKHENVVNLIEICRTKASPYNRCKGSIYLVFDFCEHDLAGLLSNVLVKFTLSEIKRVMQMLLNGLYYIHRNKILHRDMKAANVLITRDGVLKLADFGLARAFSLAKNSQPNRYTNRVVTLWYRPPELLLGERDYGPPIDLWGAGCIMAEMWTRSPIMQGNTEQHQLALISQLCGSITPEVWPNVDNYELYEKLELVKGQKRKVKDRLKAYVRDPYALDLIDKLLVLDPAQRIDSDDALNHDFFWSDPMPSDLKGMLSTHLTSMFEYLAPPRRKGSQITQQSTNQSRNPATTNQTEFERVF

IC50 data for one compound are collected here from ChEMBL document CHEMBL5247634, “Design, synthesis and anticancer evaluation of selective 2,4-disubstituted pyrimidine CDK9 inhibitors” (Eur J Med Chem, 2022).

This assay addresses Cyclin-dependent kinase 9 (Homo sapiens, UniProt P50750).

In general, pIC50 refers to −log10 of the IC50, conventionally taken in molar units. Read a high pIC50 as a low IC50. Compound `COc1cc(F)ccc1-c1ccnc(NC(=O)[C@H]2CCC[C@@H](NC(C)=O)C2)c1` had a pIC50 of 8.30.
